This is a selection; strong and weak results do not stand in their true shares. Results filed as inconclusive are left out. A call without a number means that no potency is given here. Some salts and complexes are drawn in separate pieces, as the source files them; their charges need not balance. Activity calls are given as the source filed them. Calls follow the shape of the dose curve; as a rule, active = well fitted inhibition curve with a large enough effect; inconclusive = small, poorly fitted or top-dose-only effect, or another doubt; inactive = no such curve, though single readings can be large or run the other way.
The compounds below were run against Lysosomal alpha-glucosidase (Homo sapiens) (UniProt P10253) (assay: qHTS Assay for Inhibitors and Activators of Human alpha-Glucosidase Cleavage of Glycogen). Details: recombinant GAA, glycogen substrate, Amplex Red glucose oxidase fluorescence; series mostly up to 76.4 µM.
Text: NIH Chemical Genomics Center [NCGC] NIH Molecular Libraries Probe Production Centers Network [MLPCN] MLPCN Grant: R03 MH084841-01 Assay Submitter (PI): Wei Zheng NCGC Assay Overview: Alpha-glucosidase is responsible for the hydrolysis of terminal, non-reducing 1,4-linked alpha-D-glucose residues, which releases alpha-D-glucose. It is a lysosomal hydrolase that is required for the degradation of a small percentage (1-3%) of cellular glycogen in humans. Deficiency of this enzyme results in glycogen-storage disease type II (GSDII), also referred to as Pompe disease, an autosomal recessive disorder. Structurally normal glycogen is accumulated in the lysosomes and cytoplasm in affected patients, primarily in muscle tissues. Excessive glycogen storage within lysosomes may interrupt normal functioning of other organelles and leads to cellular injury. In turn, this leads to enlargement and dysfunction of the entire organ involved (eg: cardiomyopathy and muscle weakness). It has been reported that the improper folding and trafficking of alpha-glucosidase resulting from genetic mutations may account for a significant number of Pompe patients. […] We optimized this alpha-glucosidase assay in 1536-well plate format for identification of novel small molecule inhibitors or activators with structures other than the sugar analogs in order to develop new pharmacological chaperones. Previous assays of alpha-Glucosidase have utilized a non-natural fluorescent substrate to probe enzyme activity. The present assay measures enzyme activity on glycogen using a coupled-assay system to glucose oxidase.
NCGC Assay Protocol Summary: This is an enzyme assay using glycogen from bovine liver (Sigma catalog #: G0885) as the substrate and recombinant human alpha-glucosidase as the enzyme preparation. Upon hydrolysis of the substrate, the glucose product can be detected using the Amplex Red Glucose Oxidase Assay Kit (Invitrogen catalog #: A22189). The product of this reaction can be read with a fluorescence plate reader with an excitation at 573 nm and an emission at 610 nm. Data were normalized to the controls for basal activity (without enzyme) and 100% activity (with enzyme). The AC50 values were determined from concentration-response data modeled with the standard Hill equation. Assay buffer for enzyme reaction: 50 mM citric acid (titrated with potassium phosphate to pH 5.0), 0.01% Tween-20 (pH 5.0 is an optimal condition for this enzyme assay) Assay buffer for Amplex Red reaction: Tris-HCl, pH 7.5 1536-well assay protocol for the alpha-glucosidase assay: (1) Add 2 ul/well alpha-glucosidase enzyme solution (4 nM final) (2) Add 23 nL compounds in DMSO solution. The final titration was 0.7 nM to 77 uM. (3) Add 1 ul of glycogen substrate solution (30 ug) (4) Incubate at 37 C for 40 min (5) Add 2 ul tris-HCl buffer with Amplex Red reagents (6) Incubate 45 min at room temperature. (7) Detect the assay plate in a ViewLux plate reader (PerkinElmer) with Ex=573 nm and Em=610nm. Keywords: Alpha-glucosidase, Pompe Disease, pharmacological chaperone, chaperone therapy, high throughput screening, alpha-glucosidase inhibitor, MLSMR, MLSCN, NIH Roadmap, qHTS and NCGC
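Also: the screen sought inhibitors and activators.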
Potency is read from the fitted curve at half-maximal effect.

Row | SMILES | Potency
1 | O=C(NCC1(N2CCOCC2)CCCCC1)c1ccc(Cl)cc1 | inactive
2 | CCOc1ccc(C)cc1CN(CCCl)CCCl | inactive
3 | COc1ccccc1C(=O)NCC1(N2CCOCC2)CCCCC1 | inactive
4 | COc1ccc(NC2CCN(CCc3ccccc3)CC2)c(OC)c1 | active: 7.88 µM
5 | CCOC(=O)N1CCC(Nc2ccc(F)cc2)CC1 | inactive
6 | O=C(NCC1(N2CCCCC2)CCCCC1)c1ccc(F)cc1 | inactive
7 | Cc1ccc(OCC(C)C)c(CN(CCCl)CCCl)c1 | inactive
8 | COc1cc(C(=O)NCC2(N(C)C)CCCCC2)ccc1OC(F)F | inactive
9 | CC(C)(C)OC(=O)N1CCC(N(C(=O)c2ccccc2)c2ccc(F)cc2)CC1 | inactive
10 | COc1ccc(C(=O)NCC2(N3CCCCC3)CCCCC2)c(OC)c1OC | inactive
11 | COc1ccc(C(=O)NCC2(N3CCCCC3)CCCCC2)cc1 | inactive
12 | O=C(NCC1(N2CCCCC2)CCCCC1)c1ccc(=O)[nH]c1 | inactive
13 | Cc1cc(C)cc(N(C(=O)c2ccccc2)C2CCN(C(=O)OC(C)(C)C)CC2)c1 | inactive
14 | O=C(NCC1(N2CCOCC2)CCCCC1)c1cc2ccccc2o1 | inactive
15 | O=C(OC1CN2CCC1CC2)C1c2ccccc2Oc2ccccc21 (stereo unspecified) | inactive
16 | N#CC1(Nc2ccccc2)CCN(Cc2ccccc2)CC1 | inactive
17 | CCOC(=O)N1CCC(Nc2ccc(OC)cc2)CC1 | inactive
18 | CC(C)c1ccc(NC2CCN(C(=O)OC(C)(C)C)CC2)cc1 | inactive

Row | SMILES | Potency
19 | CN(C)c1cccc(C(=O)NCC2(N3CCCCC3)CCCCC2)c1 | inactive
20 | COc1ccc(CN(CCCl)CCCl)cc1Cl | inactive
21 | COc1cc(OC)c(C(=O)NCC2(N(C)C)CCCCC2)cc1OC | inactive
22 | O=C(OC1CN2CCC1CC2)c1ccc([N+](=O)[O-])cc1 (stereo unspecified) | inactive
23 | COc1ccc2c(c1O)-c1c(O)c(OC)cc3c1[C@H](C2)[N+](C)(C)CC3.O=[N+]([O-])c1cc([N+](=O)[O-])c([O-])c([N+](=O)[O-])c1[O-] | inactive
24 | CCCOc1ccc(C(=O)NCC2(N(C)C)CCCCC2)cc1OC | inactive
25 | O=C(NCC1(N2CCOCC2)CCCCC1)c1ccccc1Br | inactive
26 | CCCCOc1ccccc1C(=O)NCC1(N2CCOCC2)CCCCC1 | inactive
27 | N#CC1(Nc2ccccc2)CCN(CCc2ccccc2)CC1 | inactive
28 | CCOc1ccc(C(=O)NCC2(N3CCOCC3)CCCCC2)cc1 | inactive
29 | O=C(NCC1(N2CCCCC2)CCCCC1)c1cccc([N+](=O)[O-])c1 | inactive
30 | O=[N+]([O-])c1cc([N+](=O)[O-])c(NCC2CCS(=O)(=O)C2)c([N+](=O)[O-])c1 (stereo unspecified) | inactive
31 | CCCOc1cccc(C(=O)NCC2(N3CCOCC3)CCCCC2)c1 | inactive
32 | O=C(NCC1(N2CCCCC2)CCCCC1)c1cccc(C(F)(F)F)c1 | inactive
33 | COc1cc(C(=O)NCC2(N3CCCCC3)CCCCC2)ccc1OC(F)F | inactive
34 | O=C(NCC1(N2CCOCC2)CCCCC1)c1cc(=O)[nH]c2ccccc12 | inactive
35 | CN1CCN(CCOC(=O)C(O)(c2ccccc2)c2ccccc2)CC1 | inactive
36 | COc1ccc(NC2CCN(C(=O)OC(C)(C)C)CC2)cc1 | inactive
